Results as given in ChEMBL document CHEMBL2311304, “Design, synthesis and in vitro and in vivo antitumor activities of novel bivalent β-carbolines” (Eur J Med Chem, 2013).

System: Mus musculus
Test: Acute toxicity in ip treated C57BL/6 mouse for 14 days
Assay type: organism-based
Settings: in vivo, 336 h
Summary of the method: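 C57BL/6 mice (9–12 weeks, 18–22 g) were fasted overnight with free water. They received single i.p. doses of 1.0–500 mg kg-1 in 0.5% CMC-Na, 10 mice per group (5 male, 5 female). Mice were watched continuously for 2 h, then intermittently to 24 h, then occasionally to 14 days. Heart, liver and kidneys were checked macroscopically. LD50 was derived graphically.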

Row | SMILES | LD50 [mg/kg]
1 | Cc1nccc2c3ccccc3n(CCCCn3c4ccccc4c4ccnc(C)c43)c12 | 200
2 | Cc1nccc2c3ccccc3n(CCCCCCn3c4ccccc4c4ccnc(C)c43)c12 | 200
3 | COc1ccc2c3ccnc(C)c3n(CCCCn3c4cc(OC)ccc4c4ccnc(C)c43)c2c1 | 50
4 | c1ccc2c(c1)c1ccncc1n2CCCCn1c2ccccc2c2ccncc21 | 200
